From PubChem BioAssay AID504706 (National Center for Advancing Translational Sciences (NCATS), 2011)
The entries are a selection whose mix differs from that of the whole data set. Results filed as inconclusive are left out. Active and inactive are the calls of the source. The call rests on the fitted dose curve; in most records, active means well fitted activation curve with a large enough effect; inconclusive means small, poorly fitted or top-dose-only effect; inactive means no such curve, though single readings can be large or run the other way.

experiment: qHTS assay for re-activators of p53 using a Luc reporter; details: H1299 p53-A138V BP100-luciferase reporter, luminescence, 24 h; at 92.2 µM (top of the series); further: % of control where 0% means no effect; nearly all actives have a fitted effect of over 45% in size
From the text: The p53 tumor suppressor plays a key role in suppression of tumorigenesis and in human carcinogenesis. It is frequently found inactivated in human cancers, mainly by point mutation. These point mutations are found in a wide variety of human cancers and a majority of them affect the DNA binding domain of the protein. The point mutations either alter native p53 conformation or abolish DNA contact. Additionally, cancer cells with p53 mutations are more resistant to chemo-radiation therapies. In order to find activators to reactivate this important protein, a cell-based screen for p53-dependent luciferase-reporter expression was developed. A p53-null H1299 lung cancer cell line was stably co-transfected with a temperature sensitive p53 mutant, p53-A138V, and a p53-responsive BP100-luciferase reporter. This cell model has previously been characterized in a gene chip profiling experiment for p53 activation. By lowering the culture temperature from 37 deg C (mutant p53 conformation) to 32 deg C (w.t. p53 conformation), a 30-60 fold increase in activation of luciferase activity is observed. At assay temperate, 37 deg C, basal reporter expression is very low and after the addition of detection reagent, a luminescent read-out is carried out. NIH Chemical Genomics Center [NCGC] NIH Molecular Libraries Probe Production Centers Network [MLPCN] MLPCN Grant: DA031088-01A1 Assay Provider (PI): Yi Sung, University of Michigan at Ann Arbor
5ul of 1000 cells per well are dispensed in all wells except column 4, into white solid-bottom TC-treated Kalypsys plates. The cells are kept in Opti-MEM and supplemented with 10% FBS and dispensed using a Multidrop (Thermo). Then using the Kalypsys pin-tool, 23nl of compounds are pinned. The compounds are starting concentration at 10mM, with 1:5 dilution, 4 points, and the control compound nocodazole is pinned in column 1 at 25mM, 1:3 dilution, in duplicate, 25mM nocodazole is pinned in column 2. Please note, all concentrations are working concentrations. 5ul of 1pM purified luciferase enzyme is dispensed using the Kalypsys dispenser in column 4. Plates are incubated for 24 hrs at 37 deg C, 5% CO2, and 95% humidity. Then 4ul of the detection reagent Amplite (ABD Bioquest) is added using the Kalypsys dispenser. Plates are incubated for 10 min at ambient room temperature and are then read on the ViewLux (Perkin Elmer) using a clear filter for a luminescent read-out.

Q: Which activity change, positive = activation does the source give for `COC(=O)c1cc2c(s1)N=C(c1ccccc1)N(C)P2(=O)N1CCOCC1` (stereo not drawn) here?
A: inactive: -0.0879%

Q: Which activity change, positive = activation does the source give for `Cc1ccc(OP(=O)(Nc2ccccn2)Oc2ccc(C)cc2)cc1` here?
A: inactive: -2.78%

Q: For `CC(=O)NC(SC(=S)N(CC(C)C)CC(C)C)C(Cl)(Cl)Cl` (stereo not drawn), which activity change, positive = activation is on record?
A: inactive: 1.87%

Q: For `O=C(OC1CN2CCC1CC2)c1ccccc1` (stereo not drawn), which activity change, positive = activation is on record?
A: inactive: -4.51%

Q: Which activity change, positive = activation does the source give for `CCC(=O)N1C2C3N(C(=O)CC)C1C1N(C(=O)CC)C(C(N1C(=O)CC)N3C(=O)CC)N2C(=O)CC` here?
A: inactive: 2.17%

Q: With `CC(NC(=O)COC(=O)C(O)(c1ccccc1)c1ccccc1)c1ccccc1` (stereo not drawn) as the compound, how does the activity change, positive = activation read?
A: inactive: -3.31%

Q: Which activity change, positive = activation does the source give for `Cc1ccccc1OP(=O)(Nc1ccccn1)Oc1ccccc1C` here?
A: inactive: -3.79%

Q: Which activity change, positive = activation does the source give for `O=c1c2cc([N+](=O)[O-])ccc2[nH]c2c([N+](=O)[O-])cc([N+](=O)[O-])cc12` here?
A: inactive: 7.67%

Q: With `CN(C)C(=O)Oc1noc2ccccc12` as the compound, how does the activity change, positive = activation read?
A: inactive: 2.73%

Q: For `CCNC(=S)/N=C(\N)N[N+](=O)[O-]`, which activity change, positive = activation is on record?
A: inactive: 9.74%

Q: With `O=C(NC1CCS(=O)(=O)C1)NP(=S)(Oc1ccccc1)Oc1ccccc1` (stereo not drawn) as the compound, how does the activity change, positive = activation read?
A: inactive: -2.42%

Q: Which activity change, positive = activation does the source give for `c1ccc(-c2nn[nH]n2)c(-c2nn[nH]n2)c1` here?
A: inactive: -2.35%

Q: With `CCOC(=O)NC(Sc1ccccc1)C(Cl)(Cl)Cl` (stereo not drawn) as the compound, how does the activity change, positive = activation read?
A: inactive: 4.05%

Q: For `Cc1ccc(NP(=O)(Oc2cccc(C)c2)Oc2cccc(C)c2)nc1`, which activity change, positive = activation is on record?
A: inactive: 0.668%

Q: Which activity change, positive = activation does the source give for `CC(=O)c1ccc(N2CC2c2ccncc2)cc1` (stereo not drawn) here?
A: inactive: 3.2%

Q: For `Cc1ccccc1CN(C)C(=O)COC(=O)C(O)(c1ccccc1)c1ccccc1`, which activity change, positive = activation is on record?
A: inactive: -3.64%

Q: Which activity change, positive = activation does the source give for `C[C@H]1OP(=O)(Oc2ccccc2)C[C@@H]2O[C@@H]21` (stereo partly drawn) here?
A: inactive: 0.28%

Q: For `C[C@@H]1C=CCP(=O)(Oc2ccccc2)O1` (stereo partly drawn), which activity change, positive = activation is on record?
A: inactive: 3.3%

Q: Which activity change, positive = activation does the source give for `CC(=O)Nc1ccc([As](=O)(O)O)c(O)c1` here?
A: inactive: -1.51%

Q: For `CC(=O)Nc1ccc(Oc2c([N+](=O)[O-])cc([N+](=O)[O-])cc2[N+](=O)[O-])cc1`, which activity change, positive = activation is on record?
A: inactive: -4.25%

Q: For `O=P1(Nc2nc3ccc(Cl)cc3s2)COc2ccccc2O1` (stereo not drawn), which activity change, positive = activation is on record?
A: inactive: 3.43%

Q: Which activity change, positive = activation does the source give for `CCOc1ccc(C2=NCC(CBr)S2)cc1` (stereo not drawn) here?
A: inactive: 4.79%

Q: For `CC(C)(C)C(=O)NC(Sc1ccccc1)C(Cl)(Cl)Cl` (stereo not drawn), which activity change, positive = activation is on record?
A: inactive: -3.26%

Q: Which activity change, positive = activation does the source give for `CC(C)C(=O)NC(Sc1ccccc1)C(Cl)(Cl)Cl` (stereo not drawn) here?
A: inactive: -4.91%

Q: With `O=P(Nc1nccs1)(c1ccccc1)c1ccccc1` as the compound, how does the activity change, positive = activation read?
A: inactive: 0.097%

Q: With `c1nnnn1CCn1cnnn1` as the compound, how does the activity change, positive = activation read?
A: inactive: -6.63%

Q: For `O=[N+]([O-])c1ccc(O)c(/C=N/Nc2ccc([N+](=O)[O-])cc2[N+](=O)[O-])c1`, which activity change, positive = activation is on record?
A: inactive: 1.36%

Q: For `O=[N+]([O-])c1ncn(CCn2cnc([N+](=O)[O-])n2)n1`, which activity change, positive = activation is on record?
A: inactive: 2.83%

Q: For `CC(=O)NC(SC(=S)N(C)C)C(Cl)(Cl)Cl` (stereo not drawn), which activity change, positive = activation is on record?
A: inactive: 17.9%

Q: Which activity change, positive = activation does the source give for `O=[As](O)(c1ccccc1)c1ccc(O)cc1` here?
A: inactive: 2.66%

Q: Which activity change, positive = activation does the source give for `C(Cc1nn[nH]n1)Cc1nn[nH]n1` here?
A: inactive: 23.5%

Q: For `Nc1ccc([As](=O)(O)c2ccc([N+](=O)[O-])cc2)cc1`, which activity change, positive = activation is on record?
A: inactive: 0.137%

Q: Which activity change, positive = activation does the source give for `O=C(OC1CN2CCC1CC2)c1cccc(Cl)c1` (stereo not drawn) here?
A: inactive: -0.871%

Q: For `O=P(Nc1ccccn1)(c1ccc(Br)cc1)c1ccc(Br)cc1`, which activity change, positive = activation is on record?
A: inactive: -2.8%

Q: With `CN(C)C1(CNC(=O)c2ccc(Cl)c(S(N)(=O)=O)c2)CCCCC1` as the compound, how does the activity change, positive = activation read?
A: inactive: 4.08%

Q: For `O=P(Nc1nc2ccccc2s1)(c1ccccc1)c1ccccc1`, which activity change, positive = activation is on record?
A: inactive: 0.338%

Q: Which activity change, positive = activation does the source give for `C[C@H]1OP(=O)(Oc2ccccc2)[C@H](O)[C@H](O)[C@H]1N=[N+]=[N-]` (stereo partly drawn) here?
A: inactive: -0.296%

Q: Which activity change, positive = activation does the source give for `CC(C)(C)C(=O)NC(Sc1ccncn1)C(Cl)(Cl)Cl` (stereo not drawn) here?
A: inactive: -1.38%

Q: Which activity change, positive = activation does the source give for `O=[N+]([O-])c1ncn(CCn2ncnc2[N+](=O)[O-])n1` here?
A: inactive: -7.63%

Q: With `O=[N+]([O-])c1cccc(NC2=NCC(CBr)S2)c1` (stereo not drawn) as the compound, how does the activity change, positive = activation read?
A: inactive: 2.62%

Q: For `O=C(O)CNc1ccc([As](=O)(O)O)cc1`, which activity change, positive = activation is on record?
A: inactive: -4.92%

Q: For `O=C(Nc1cc([As](=O)(O)O)ccc1O)c1ccccc1`, which activity change, positive = activation is on record?
A: inactive: -4.36%

Q: With `Nc1ccc([As](=O)(O)c2ccc(N)cc2)cc1` as the compound, how does the activity change, positive = activation read?
A: inactive: 3.14%

Q: For `C[N+]1=C2C=CC=CC=C2SC12C([N+](=O)[O-])=CC([N+](=O)[O-])=C[C-]2[N+](=O)[O-]` (stereo not drawn), which activity change, positive = activation is on record?
A: inactive: -16%

Q: Which activity change, positive = activation does the source give for `CCN(/C(=N/P(=O)(N1CCOCC1)N1CCOCC1)N1CCOCC1)c1ccc(OC)cc1` here?
A: inactive: 2.31%

Q: For `CC(C)=N/N=C(\N)N[N+](=O)[O-]`, which activity change, positive = activation is on record?
A: inactive: -4.52%

Q: For `CN(C)C(=O)OCCc1n(C)cc[n+]1C`, which activity change, positive = activation is on record?
A: inactive: -1.86%

Q: With `CC1CCN(C(=O)Oc2c(Cl)cc(Cl)c3cccnc23)CC1` as the compound, how does the activity change, positive = activation read?
A: inactive: -4.29%

Q: With `COc1ccc(C2=NCC(CBr)S2)cc1` (stereo not drawn) as the compound, how does the activity change, positive = activation read?
A: inactive: 11.5%

Q: With `O=[N+]([O-])c1cccc2n[nH]nc12` as the compound, how does the activity change, positive = activation read?
A: inactive: 4.93%

Q: Which activity change, positive = activation does the source give for `CC(=O)N1C2C3N(C(C)=O)C1C1N(C(C)=O)C(C(N1C(C)=O)N3C(C)=O)N2C(C)=O` here?
A: inactive: -4.54%

Q: Which activity change, positive = activation does the source give for `Cc1ccc(NP(=O)(Oc2ccccc2)Oc2ccccc2)nc1` here?
A: inactive: -3.8%

Q: With `CCc1nc2c(n1)c1c(non1O)c1c2no[n+]1[O-]` as the compound, how does the activity change, positive = activation read?
A: inactive: -29.3%

Q: With `O=[N+]([O-])c1cc([N+](=O)[O-])c(CCNc2ccccc2)c([N+](=O)[O-])c1` as the compound, how does the activity change, positive = activation read?
A: inactive: 7.48%

Q: With `Nc1cc(N)c2nonc2c1[N+](=O)[O-]` as the compound, how does the activity change, positive = activation read?
A: inactive: -3.89%

Q: Which activity change, positive = activation does the source give for `CC(C)CC(=O)NC(Sc1ccc(Cl)cc1)C(Cl)(Cl)Cl` (stereo not drawn) here?
A: inactive: -0.889%

Q: For `Oc1ccccc1CNc1ccccn1`, which activity change, positive = activation is on record?
A: inactive: 2.69%

Q: With `O=C(NC(Sc1ccncn1)C(Cl)(Cl)Cl)c1ccccc1` (stereo not drawn) as the compound, how does the activity change, positive = activation read?
A: inactive: -0.0764%

Q: For `Cc1c2non([O-])c-2c(C)[n+](=O)[n+]1[O-]`, which activity change, positive = activation is on record?
A: inactive: -19.9%

Q: Which activity change, positive = activation does the source give for `NC(=O)c1cc([N+](=O)[O-])cc([N+](=O)[O-])c1N` here?
A: inactive: 3.23%

Q: Which activity change, positive = activation does the source give for `Cc1ccc(N/C(=N/P(=O)(N2CCOCC2)N2CCOCC2)N2CCOCC2)cc1` here?
A: inactive: -10.8%

Q: For `COc1ccccc1OP(=O)(Nc1ccc(C)cn1)Oc1ccccc1OC`, which activity change, positive = activation is on record?
A: inactive: 1.78%

Q: With `Cc1ccc(OP(=O)(Nc2nccs2)Oc2ccc(C)cc2)cc1` as the compound, how does the activity change, positive = activation read?
A: inactive: -0.75%
